Among the data in ChEMBL document CHEMBL1144935, “Synthesis, biological evaluation, and receptor docking simulations of 2-[(acylamino)ethyl]-1,4-benzodiazepines as kappa-opioid receptor agonists endowed with antinociceptive and antiamnesic activity” (J Med Chem, 2003) are Ki values, retold here.

The chains behind the UniProt entries cited, without tags or fusion partners. Where a name states a change or a piece, a line headed by the entry shows the natural chain unless it says otherwise.
UniProt P41145: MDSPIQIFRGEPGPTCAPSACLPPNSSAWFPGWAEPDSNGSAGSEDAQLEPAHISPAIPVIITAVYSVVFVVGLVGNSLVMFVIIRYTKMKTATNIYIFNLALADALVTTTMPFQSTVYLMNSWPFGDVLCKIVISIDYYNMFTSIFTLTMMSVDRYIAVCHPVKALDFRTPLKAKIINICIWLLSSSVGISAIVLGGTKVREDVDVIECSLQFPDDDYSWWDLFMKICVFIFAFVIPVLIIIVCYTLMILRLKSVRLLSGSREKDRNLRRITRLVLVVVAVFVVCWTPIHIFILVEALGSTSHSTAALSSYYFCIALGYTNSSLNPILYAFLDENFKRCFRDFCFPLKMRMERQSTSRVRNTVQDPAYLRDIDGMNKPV
UniProt P35372, whole entry: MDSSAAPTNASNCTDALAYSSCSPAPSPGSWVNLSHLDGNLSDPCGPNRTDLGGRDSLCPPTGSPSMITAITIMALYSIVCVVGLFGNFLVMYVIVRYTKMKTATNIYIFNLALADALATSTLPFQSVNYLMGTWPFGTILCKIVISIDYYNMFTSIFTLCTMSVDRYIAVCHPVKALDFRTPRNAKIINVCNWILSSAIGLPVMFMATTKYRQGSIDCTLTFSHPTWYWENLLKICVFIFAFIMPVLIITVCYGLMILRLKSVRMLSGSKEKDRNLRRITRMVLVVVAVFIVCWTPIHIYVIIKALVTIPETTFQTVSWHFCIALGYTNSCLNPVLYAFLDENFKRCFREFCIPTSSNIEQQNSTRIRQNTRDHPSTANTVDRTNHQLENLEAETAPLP

In test [1] the target is Kappa-type opioid receptor (Homo sapiens, UniProt P41145). In words: Binding affinity against opioid receptor kappa 1 from human cloned receptor.
A further test deals with Mu-type opioid receptor (Homo sapiens, UniProt P35372). In words: Binding affinity determined against Opioid receptor mu 1 from human cloned receptor.

For orientation: Ki means the equilibrium dissociation constant of an inhibitor or competing ligand from its target. `Oc1ccc2c3c1O[C@H]1c4[nH]c5ccccc5c4C[C@@]4(O)[C@@H](C2)N(CC2CC2)CC[C@]314` [NALTRINDOLE]: the Ki was 4.4 nM in test [1] and 7.2 nM at Mu-type opioid receptor.
